Patent publication US8163479B2, “Specific substrates for O6-alkylguanine-DNA alkyltransferase” (Ecole Polytechnique Federale de Lausanne, priority 2004, dated 2012)
Substitutions are numbered along the chain they refer to. Values belong to the substance of their own block, whether it stands above or below them.

Legend:
wild type hAGT = target: T1, wild type hAGT (Homo sapiens, UniProt P16455); settings: known values; cited from earlier work
T1 sequence (P16455 1-207): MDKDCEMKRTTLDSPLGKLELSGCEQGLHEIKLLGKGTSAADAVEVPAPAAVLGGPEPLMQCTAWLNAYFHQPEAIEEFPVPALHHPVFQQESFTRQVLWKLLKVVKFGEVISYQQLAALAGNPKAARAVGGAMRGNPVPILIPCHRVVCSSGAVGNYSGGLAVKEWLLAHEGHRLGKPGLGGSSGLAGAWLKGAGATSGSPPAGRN

AGTM (mutant AGT) = target: T2, AGTM (mutant AGT) (Homo sapiens, UniProt P16455, A127T/C150N/C62A/G131K/G132T/K125A/M134L/N157G/Q115S/Q116H/R128A/R135S/S151I/S152N/S159E); assay: Reaction rate of AGT mutant with substrate, BGBT capture and Western blot; type: biochemical; settings: AGTM 1 μM, substrate 10 μM, 24° C., pH 7.3
T2 construct: a truncation after codon 182 into the mutant AGT gene; 6xHis
T2 sequence (P16455 1-182 C62A/Q115S/Q116H/K125A/A127T/R128A/G131K/G132T/M134L/R135S/C150N/S151I/S152N/N157G/S159E): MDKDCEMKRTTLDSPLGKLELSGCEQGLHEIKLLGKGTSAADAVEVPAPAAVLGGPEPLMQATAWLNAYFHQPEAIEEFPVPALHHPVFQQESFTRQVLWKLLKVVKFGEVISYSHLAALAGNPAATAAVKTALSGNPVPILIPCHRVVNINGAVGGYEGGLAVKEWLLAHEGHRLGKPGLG
Excerpt: Proteins are then denatured with SDS and heat. Samples are subjected to SDS-PAGE and Western blot analysis. The intensity of the corresponding bands is detected by chemiluminescence stain.
A second AGT mutant (“AGTM”) containing the mutations Cys62Ala, Gln115Ser, Gln116His, Lys125Ala, Ala127Thr, Arg128Ala, Gly131Lys, Gly132Thr, Met134Leu, Arg135Ser, Cys150Asn, Ser15111e, Ser152Asn, Asn157Gly, Ser159G1u, and truncation at 182 is derived from the mentioned above AGT mutant by subsequent introduction of further mutations and a truncation after codon 182 into the mutant AGT gene. […] The GST-fusion protein is expressed and purified as well.
AGTM (1 μM final concentration) is incubated with N^9-cyclopentyl-O^6-(4-bromothiophen-2-yl)-guanine (18, CPTG) (10 μM in 1% DMSO final concentration) in reaction buffer (50 mM HEPES, 1 mM DTT, […] BSA, pH 7.3) at 24° C. […] The reaction is quenched by addition of SDS-Laemmli buffer and heating for 2 min at 95° C. Samples are run on a 12% acrylamide gel and analysed by Western blotting.

[1] = target: T3, AGT (Gly160Trp)-NLS3 fusion protein in the nucleus of CHO cells (Homo sapiens, UniProt P16455, G160W); assay: Intracellular competition of two AGT mutants with two substrates in CHO cells; type: cell-based; settings: 5 μM BG-AcFL 20 min after 5 μM CPTG 10 min
T3 construct: expressed in transfected cells; host or cells: CHO cells, transient expression
T3 sequence (P16455 1-207 G160W): T1 sequence (P16455 1-207) with G160W
Excerpt: (§1) The mutant AGTM (Example 47) is amplified with the suitable primers and cloned between the NheI and BglII sites of the vector pEGFP-Nuc. The yeast β-galactosidase gene is likewise amplified and subcloned into this vector via BglII/BamHI to result in a vector with an AGT-β-Gal fusion gene. The wild type hAGT gene is amplified and cloned via NheI/BglII into pEGFP-Nuc to result in an AGT-NLS3 fusion gene coding for the mutation Gly160Trp. After transient expression of both AGT mutants in parallel in CHO cells, the cells are incubated with 5 μM CPTG (18) for 10 min and subsequently with 5 μM of substance 4 of Juillerat et al., Chem Biol 10:313-317, 2003 (O^6-(4-(diacetyl-fluoresceine-carbonylaminomethyl)-benzyl)-guanine (BG-AcFL), for 20 min. The cells are washed and imaged according to standard procedures.

[2] = target: T4, AGTM-β-galactosidase fusion protein in CHO cells (Homo sapiens, UniProt P16455, A127T/C150N/C62A/G131K/G132T/K125A/M134L/N157G/Q115S/Q116H/R128A/R135S/S151I/S152N/S159E); assay: as above; type: cell-based; settings: 5 μM BG-AcFL 20 min after 5 μM CPTG 10 min
T4 construct: a truncation after codon 182 into the mutant AGT gene; expressed in transfected cells; host or cells: CHO cells, transient expression
T4 sequence (P16455 1-182 C62A/Q115S/Q116H/K125A/A127T/R128A/G131K/G132T/M134L/R135S/C150N/S151I/S152N/N157G/S159E): T2 sequence (P16455 1-182 C62A/Q115S/Q116H/K125A/A127T/R128A/G131K/G132T/M134L/R135S/C150N/S151I/S152N/N157G/S159E)
Excerpt: as §1

[3] = target: T5, AGT26-CaaX fusion protein in CHO cells deficient in endogenous wildtype AGT (Homo sapiens, UniProt P16455, A127T/C150S/C62A/G131K/G132T/K125A/M134L/N157G/R128A/R135S/S159E); type: cell-based
T5 construct: and truncation at 182 is also prepared according to the same method; expressed in transfected cells
T5 sequence (P16455 1-182 C62A/K125A/A127T/R128A/G131K/G132T/M134L/R135S/C150S/N157G/S159E): T2 sequence (P16455 1-182 C62A/Q115S/Q116H/K125A/A127T/R128A/G131K/G132T/M134L/R135S/C150N/S151I/S152N/N157G/S159E) with S115Q, H116Q, N150S, I151S, N152S
Procedure: A fourth AGT mutant (“AGT26”) related to AGTM and containing the mutations Cys62Ala, Lys125Ala, Ala127Thr, Arg128Ala, Gly131Lys, Gly132Thr, Met134Leu, Arg135Ser, Cys150Ser, Asn157Gly, Ser159G1u, and truncation at 182 is also prepared according to the same method.
A vector for a fusion of AGT26 and the CaaX-farnesylation signal is transfected into CHO cells deficient in endogenous wildtype AGT. Stable transfectants are selected under geneticine treatment. For that purpose the gene of AGT26 is cloned into pCMV-Script (Stratagene) followed on its C-terminus by the CaaX-box sequence encoded in the pECP-F (Clontech). The final protein sequence (position 690-1271) yields a single polypeptide with 194 amino acids. In the stably transfected cell line this polypeptide leads to an AGT fusion protein localized to the inner surface of the cell membrane. […] All imaging is done with an inverted Zeiss fluorescence microscope Axiovert 40 CFL with filter sets for tetramethylrhodamine and for fluorescein.

- second order rate constant k2 (AGTM (mutant AGT)): ~3,000 s^−1 M^−1
Substance: biotinylated O^6-benzylguanine [BGBT, reference compound]
- rate constant of the reaction with wild type hAGT (wild type hAGT): 400 s^−1M^−1

- fluorescence labeling of the AGT fusion protein in the nucleus [1]: No significant labeling
- fluorescence labeling of cytoplasmically localized AGT-β-galactosidase fusion protein [2]: selectively fluorescence labeled
Substance: O^6-(4-(diacetyl-fluoresceine-carbonylaminomethyl)-benzyl)-guanine [BG-AcFL, reference compound]

- cell membrane permeability [3]: only very low cell membrane permeability
- labeling of cells (fluorescence microscopy) ([3]; 5 μM, 30 min, CHO cells with AGT26-CaaX): no significant labeling of the cells
Substance: O^6-(4-(ATT0488-amidomethyl)-benzyl)-guanine [BG-Atto488]
